The entries are a selection whose mix differs from that of the whole data set. Inconclusive results are not listed. Calls of active or inactive are those of the source. The call rests on the fitted dose curve; in most records, active means well fitted cell-killing curve with a large enough effect; inconclusive means small, poorly fitted or top-dose-only effect, or effect the other way; inactive means no such curve, though single readings can be large or run the other way.
Assay: Viability Counterscreen for Primary qHTS for Inhibitors of ATXN expression; further: nearly all actives have a fitted effect of over 40% in size
Conditions: S2 cells (HEK-293 line with an ATXN2-luciferase reporter) viability, CellTiter-Fluor protease fluorescence, 24 h

| Structure (SMILES) | activity change, negative = cytotoxicity (at 56.7 µM (top of the series)) | activity change, negative = cytotoxicity (at 114 µM (top of the series)) |
| --- | --- | --- |
| CCC(=O)N(c1ccccc1)C1(COC)CCN(CCn2nnn(CC)c2=O)CC1 | inactive: -19.7% | inactive: 20.1% |
| CCC(=O)N(c1ccccc1)C1(COC)CCN(CCc2cccs2)CC1 | inactive: -21.4% | inactive: -5.24% |

Source: PubChem BioAssay AID651635 (National Center for Advancing Translational Sciences (NCATS), 2012)
